Source: PubChem
Rows were chosen to be rich in hits. Some 1.7% of all compounds tested hit in one or more screens of this group.
Pin1 inh = human Pin1 inhibition; Q13526; Pin1 FP peptide displacement, HiFluor488, 10 min; Potency, µM (titrated, usually from 115 µM), actives largely listed as inhibitors; 0.009% of 390,000 active; active = well fitted inhibition curve with a large enough effect in the polarisation, with a control signal flat, not every such curve was filed as active; inconclusive = small, poorly fitted or top-dose-only effect, or effect the other way, or a change in a side signal; inactive = no such curve, though single readings can be large or run the other way; the % refers to the polarisation
GLP-1R agonist = GLP-1 receptor (human) agonism; Potency, µM (doses to about 45.6 µM), most hits filed as activators; 0.007% of 380,000 active; HEK293 GLP-1R CRE-luciferase, luminescence, 4-6 h; cells express a hypersensitive GLP-1R form; P43220
HEK293 tox = cytotoxic in the GLP-1 receptor inverse agonist counter-screen; AID 624418; HEK293 cAMP-luciferase reporter cells, luminescence, 24 h; 0.13% of 410,000 active; Potency, µM (titrated, usually from 38.3 µM), actives largely listed as inhibitors;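 note: loss of luciferase light is scored as toxicity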
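Compound-treated cells are incubated 24 hr at 37 deg C under 5% CO2 after a 12 hour attachment period, then luciferase detection reagent is added and luminescence is measured following 12 min at room temperature; lowered signal indicates toxicity.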
miR-21 FLuc = miR-21 reporter, rising signal. HeLa miR-21 FLuc reporter, luciferase, 48 h. Potency, µM (titrated, usually from 38.3 µM). 340,000 tested, under 10 active. AID 2288; active = well fitted rising curve with a large enough effect; inconclusive = small, poorly fitted or top-dose-only effect; inactive = no such curve, though single readings can be large or run the other way;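 also: miR-21 action dims this reporter so a rising signal means less miR-21 action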
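HeLa cells stably expressing CMV-driven firefly luciferase with a downstream miR-21 binding sequence, endogenously expressing miR-21, were treated with titrations (up to about 40uM final) for 48 hours at 37 degree Celsius. Luciferase luminescence was read after lysis.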
GLP1R inv ag = inverse agonists of human GLP-1 receptor; P43220; HEK293 GLP-1R CRE-luciferase, luminescence, 24 h; GLP-1R form is constitutively active; Potency, µM (highest dose often 38.3 µM), most hits filed as inhibitors; 1.6% of 410,000 active; AID 624417; note: nearly all actives have a fitted effect of over 55% in size
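HEK293 cells stably co-expressing constitutively active GLP-1R and a cAMP-responsive luciferase reporter were seeded in DMEM with 10% Nu serum, given compounds after 12 h, and incubated 24 h at 37 deg C. Luminescence was then read.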
PTHR1 agonist = PTHR1 (human) receptor agonism | Q03431 | 0.075% of 410,000 active | Potency, µM (highest dose often 115 µM), most hits filed as activators | AID 743266 | HEK293 GP2 PTHR1 cells, GloSensor cAMP luminescence, 1 h; note: nearly all actives have a fitted effect of over 55% in size
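HEK-293-derived GP2 cells expressing PTHR1 and a GloSensor cAMP reporter, 3,000/well, plated overnight, given luciferin plus IBMX (each 0.5 mM as added) for 1 h at 37 °C, then compound for 1 h at 37 °C. Luminescence was read after 15 min at room temperature.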
Large screens that a line does not name were inactive. Unless noted, calls come from the whole dose curve; as a rule, active = well fitted curve in the direction sought with a large enough effect; inconclusive = small, poorly fitted or top-dose-only effect, or another doubt; inactive = no such curve, though single readings can be large; an effect the other way counts as inactive or inconclusive.

COc1ccc(S(=O)(=O)NCC(c2ccco2)N2CCN(c3ccccc3F)CC2)cc1C (stereo not given)	GLP1R inv ag inconclusive (no result: GLP-1R agonist)
CC1=C(C(=O)Nc2ccccc2C(=O)NC2CCCCC2C)SCCO1 (stereo not given)	GLP1R inv ag 10µM
NC(=O)C1CCN(c2nc(-c3ccc(OC(F)(F)F)cc3)cs2)CC1	none (no result: GLP-1R agonist, HEK293 tox, miR-21 FLuc, GLP1R inv ag, PTHR1 agonist)
CN(C)CCNc1oc(-c2ccccc2Cl)nc1S(=O)(=O)c1ccccc1	GLP1R inv ag 3.2µM (no result: miR-21 FLuc)
CN(C)CCCNc1oc(-c2ccccc2Cl)nc1S(=O)(=O)c1ccc(F)cc1	GLP1R inv ag inconclusive
Fc1ccc(Nc2nc(SCc3cccc(Cl)c3)nc3ccccc23)cc1	GLP1R inv ag 11µM (no result: GLP-1R agonist)
NC(=O)C1CCN(c2nc(-c3ccc4c(c3)OCCCO4)cs2)CC1	none (no result: GLP-1R agonist, HEK293 tox, miR-21 FLuc, GLP1R inv ag, PTHR1 agonist)
O=C(Nc1ccc(OCc2cc(=O)n3ccccc3n2)cc1)c1ccccc1Cl	none (no result: GLP-1R agonist)
O=C(NCc1ccccc1)c1ccc(CN2CCC(Cc3ccccc3)CC2)cc1	GLP1R inv ag 10µM
CCc1ccccc1NC(=O)c1ccc(CN2CCC(Cc3ccccc3)CC2)cc1	HEK293 tox inconclusive, GLP1R inv ag 8.9µM
COCCNC(=O)c1ccc(CN2CCC(Cc3ccccc3)CC2)cc1	none
Cc1cc(Nc2ccc(Cl)cc2)n(-c2cccc(Cl)c2)n1	GLP1R inv ag 7.9µM
Cc1cc(Nc2ccc(Cl)cc2)n(-c2ccccc2)n1	GLP1R inv ag 2.8µM
Cn1cccc1/C=N\NC(=O)C1COc2ccc(C(C)(C)C)cc2O1 (stereo not given)	GLP1R inv ag 10µM
Cn1cccc1/C=N\NC(=O)C1COc2ccccc2O1 (stereo not given)	none
CCOc1ccccc1NC(=O)Cn1c(=O)n(Cc2ccc(OC)cc2)c(=O)c2oc3ccccc3c21	none (no result: GLP-1R agonist)
O=C(Nc1ccccc1)Nc1cccc2cccnc12	GLP1R inv ag 10µM
O=C(Nc1ccccc1)Nc1cccc2ccccc12	GLP1R inv ag inconclusive
O=S(=O)(c1ccc2c(c1)OCO2)N1CCN(c2nc(-c3cccs3)nc3ccccc23)CC1	none (no result: GLP-1R agonist, HEK293 tox, miR-21 FLuc, GLP1R inv ag, PTHR1 agonist)
CC(C)COC(=O)N(C)c1ccc(C(O)(C(F)(F)F)C(F)(F)F)cc1	GLP1R inv ag 8.9µM
CC(C)(C)c1ccc(S(=O)(=O)Nc2ccc(C(O)(C(F)(F)F)C(F)(F)F)cc2)cc1	GLP1R inv ag inconclusive (no result: Pin1 inh, miR-21 FLuc)
O=C(CSc1nc(=O)n(Cc2ccccn2)c2c1CCC2)Nc1ccccc1	none (no result: GLP-1R agonist)
CC(C)c1cc(C(C)C)c(S(=O)(=O)N2c3ccccc3[C@@]3(Br)C[C@H]4C(=O)N[C@@H](Cc5ccccc5)C(=O)N4[C@@H]23)c(C(C)C)c1	GLP1R inv ag 5.6µM (no result: miR-21 FLuc)
O=C1N[C@@H](Cc2ccccc2)C(=O)N2[C@H]1C[C@]1([C@]34C[C@H]5C(=O)N[C@@H](Cc6ccccc6)C(=O)N5[C@H]3N(S(=O)(=O)c3ccccc3)c3ccccc34)c3ccccc3N(S(=O)(=O)c3ccccc3)[C@H]21	none (no result: miR-21 FLuc)
O=C1N[C@@H](Cc2ccccc2)C(=O)N2[C@@H]3N(S(=O)(=O)c4ccccc4)c4ccccc4[C@]3(Br)C[C@@H]12	GLP1R inv ag 10µM (no result: miR-21 FLuc)
CN(C(=O)CO)c1c(I)c(C(=O)NCC(O)CO)c(I)c(C(=O)NCC(O)CO)c1I (stereo not given)	none (no result: Pin1 inh, HEK293 tox, miR-21 FLuc, GLP1R inv ag, PTHR1 agonist)
CCN1CCN(Cc2ccc(NC(=O)c3cc(NC(=O)C(=O)c4c[nH]c5ccccc45)cc(OC)c3)cc2C(F)(F)F)CC1	HEK293 tox inconclusive, miR-21 FLuc inconclusive, GLP1R inv ag 10µM
O=C(NCC12CC3CC(CC(C3)C1)C2)c1cc2n(n1)C(C(F)(F)F)CC(c1ccco1)N2 (stereo not given)	GLP1R inv ag 3.5µM
COc1ccc(NC(=O)c2cc3n(n2)C(C(F)(F)F)CC(c2ccco2)N3)cc1 (stereo not given)	Pin1 inh inconclusive
Cc1ccc(C(=O)N(Cc2ccco2)Cc2sccc2C)cc1	GLP1R inv ag inconclusive (no result: GLP-1R agonist)
